Test results published in patent publication US20190071493A1 (SCHOLAR ROCK, published 2019).
Each block holds one binder with its values, some of them ahead of it.

Amino acid sequences for entries named in this document (tags omitted). Residues count along the entry.
UniProt Q14392, 18-627 limits assumed, chain 1 of 2: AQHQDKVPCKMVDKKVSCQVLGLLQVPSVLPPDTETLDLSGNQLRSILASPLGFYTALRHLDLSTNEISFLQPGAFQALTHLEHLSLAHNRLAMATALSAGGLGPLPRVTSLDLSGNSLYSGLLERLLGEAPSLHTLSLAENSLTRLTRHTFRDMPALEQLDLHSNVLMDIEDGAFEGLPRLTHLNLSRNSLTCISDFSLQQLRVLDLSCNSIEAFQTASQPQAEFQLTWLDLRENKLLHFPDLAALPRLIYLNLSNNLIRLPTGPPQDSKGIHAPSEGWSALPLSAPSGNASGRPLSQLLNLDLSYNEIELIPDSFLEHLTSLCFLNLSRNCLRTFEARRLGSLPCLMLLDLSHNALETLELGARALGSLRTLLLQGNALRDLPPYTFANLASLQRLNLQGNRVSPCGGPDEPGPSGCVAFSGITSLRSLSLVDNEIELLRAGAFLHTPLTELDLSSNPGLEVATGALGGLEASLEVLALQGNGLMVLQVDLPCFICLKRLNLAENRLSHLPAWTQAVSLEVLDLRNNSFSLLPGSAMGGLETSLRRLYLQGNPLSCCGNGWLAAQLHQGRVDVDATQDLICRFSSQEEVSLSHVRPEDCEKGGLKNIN
human GARP-proTGFβ1 complex, UniProt P01137, 30-390 limits assumed, chain 2 of 2: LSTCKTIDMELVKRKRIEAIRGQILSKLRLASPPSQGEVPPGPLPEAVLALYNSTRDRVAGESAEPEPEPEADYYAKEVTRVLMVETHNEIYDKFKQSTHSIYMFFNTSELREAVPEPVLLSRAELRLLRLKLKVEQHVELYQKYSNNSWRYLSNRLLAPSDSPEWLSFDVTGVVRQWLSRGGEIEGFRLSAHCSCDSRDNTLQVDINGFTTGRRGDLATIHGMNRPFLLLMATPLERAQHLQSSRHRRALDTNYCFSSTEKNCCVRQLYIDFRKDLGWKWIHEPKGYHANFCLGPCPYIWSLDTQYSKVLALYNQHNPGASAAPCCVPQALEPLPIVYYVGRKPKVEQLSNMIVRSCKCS
cynomolgus GARP-proTGFβ1 complex, UniProt P01137, 30-390 R228K: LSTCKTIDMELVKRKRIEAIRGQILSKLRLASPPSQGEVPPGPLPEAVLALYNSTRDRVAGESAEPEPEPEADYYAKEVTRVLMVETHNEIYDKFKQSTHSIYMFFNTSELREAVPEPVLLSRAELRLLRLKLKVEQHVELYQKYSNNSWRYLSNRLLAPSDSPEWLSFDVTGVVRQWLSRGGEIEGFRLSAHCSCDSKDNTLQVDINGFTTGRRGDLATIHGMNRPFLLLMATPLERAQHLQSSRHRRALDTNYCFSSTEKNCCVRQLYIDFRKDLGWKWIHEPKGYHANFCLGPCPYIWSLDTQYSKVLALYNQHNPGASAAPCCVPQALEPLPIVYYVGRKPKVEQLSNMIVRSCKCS
UniProt G3XA59, 18-628 limits assumed, chain 1 of 2: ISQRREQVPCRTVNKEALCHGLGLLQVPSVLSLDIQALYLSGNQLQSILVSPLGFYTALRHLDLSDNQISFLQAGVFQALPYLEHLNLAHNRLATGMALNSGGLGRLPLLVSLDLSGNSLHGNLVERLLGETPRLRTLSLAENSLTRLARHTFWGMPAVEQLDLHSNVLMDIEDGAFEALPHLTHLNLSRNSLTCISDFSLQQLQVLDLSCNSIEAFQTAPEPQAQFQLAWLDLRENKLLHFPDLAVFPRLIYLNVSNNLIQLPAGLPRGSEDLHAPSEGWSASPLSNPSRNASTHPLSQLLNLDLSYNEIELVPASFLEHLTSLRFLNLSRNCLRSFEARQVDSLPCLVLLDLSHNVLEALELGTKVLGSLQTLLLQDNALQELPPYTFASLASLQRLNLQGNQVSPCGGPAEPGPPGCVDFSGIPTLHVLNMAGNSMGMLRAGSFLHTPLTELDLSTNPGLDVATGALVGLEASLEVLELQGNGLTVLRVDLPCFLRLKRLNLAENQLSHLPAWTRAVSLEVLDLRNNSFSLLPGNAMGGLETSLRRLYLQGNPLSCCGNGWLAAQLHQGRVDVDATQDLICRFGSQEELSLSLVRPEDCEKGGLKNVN
mouse GARP-proTGFβ1 complex, UniProt P04202, 30-390 limits assumed, chain 2 of 2: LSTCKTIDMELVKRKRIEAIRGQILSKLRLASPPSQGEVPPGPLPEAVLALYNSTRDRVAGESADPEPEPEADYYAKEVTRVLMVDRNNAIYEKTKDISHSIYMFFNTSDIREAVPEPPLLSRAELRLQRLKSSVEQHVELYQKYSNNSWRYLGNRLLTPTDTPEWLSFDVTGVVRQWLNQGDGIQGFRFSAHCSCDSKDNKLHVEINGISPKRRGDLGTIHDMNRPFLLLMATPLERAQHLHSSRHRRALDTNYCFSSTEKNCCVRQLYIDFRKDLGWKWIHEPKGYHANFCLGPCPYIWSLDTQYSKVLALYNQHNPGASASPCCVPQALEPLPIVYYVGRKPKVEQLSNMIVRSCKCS

Experiments:
[1] = molecular target: T1, human GARP-proTGFβ1 complex (human, UniProt Q14392 18-627; P01137 30-390, biotinylated (Octet protocol)); experiment: species cross-reactivity screen; legend: +++ KD < 1 nM
T1 construct: Purified complex; the Octet protocol names biotinylated sGARP-proTGFβ1; also called huGARP-proTGFβ1; sGARP-proTGFβ1

[2] = molecular target: T2, cynomolgus GARP-proTGFβ1 complex (cynomolgus); experiment: as above
T2 construct: also called cyGARP-proTGFβ1

[3] = molecular target: T3, mouse GARP-proTGFβ1 complex (mouse, UniProt G3XA59 18-628; P04202 30-390); experiment: species cross-reactivity screen; legend: ++ KD 1-10 nM
T3 construct: also called muGARP-proTGFβ1

KD [1]: < 1 nM
KD [2]: < 1 nM
B1: Ab2 (antibody, V domains shown)
VH: EVQLVQSGAEMKKPGESLKISCKGSGYNFASDWIGWVRQTPGKGLEWMGVIYPGDSDTRYSASFQGQVTISADKSINTAYLQWSSLKASDTAMYYCASAAGIAAAGHVTAFDIWGQGTMVTVSS
VL: not shown
notes: also called antibody Ab2; clone Ab2

KD [2]: < 1 nM
KD [3]: 1 to 10 nM
B2: Ab1 (antibody, human IgG4 S228P, lambda, V domains shown)
VH: EVQLVESGGGLVQPGRSLRLSCAASGFTFSSYGMHWVRQAPGKGLEWVAVISYDGSNKYYADSVKGRFTISRDNSKNTLYLQMNSLRAEDTAVYYCARDIRPYGDYSAAFDIWGQGTLVTVSS
VL: NFMLTQPHSVSESPGKTVTISCTGSSGSIASNYVQWYQQRPGSAPSIVIFEDNQRPSGAPDRFSGSIDSSSNSASLTISGLKTEDEADYYCQSYDSSNHGGVFGGGTQLTVLG
notes: also called antibody Ab1; clone Ab1
